ChEMBL document CHEMBL1131511, “Potent HIV protease inhibitors incorporating high-affinity P2-ligands and (R)-(hydroxyethylamino)sulfonamide isostere” (Bioorg Med Chem Lett, 1998)
pKi: −log10 of the molar value.

Target: Human immunodeficiency virus type 1 protease (Human immunodeficiency virus 1, UniProt Q72874)
Experiment: Inhibitory activity against HIV-1 protease

pKi: 7.06
SMILES: CC(C)(C)NC(=O)[C@@H]1C[C@@H]2CCCC[C@@H]2CN1C[C@@H](O)[C@H](Cc1ccccc1)NC(=O)O[C@H]1CCOC1
